Laboratory results: ChEMBL document CHEMBL6134838, “Discovery of c-Kit as a New Therapeutic Target in LPS-Induced Acute Lung Injury through Novel Phenylamide Derivative D9” (J Med Chem, 2025)

Key:
[1] = Cytotoxicity against mouse J774.A1 cells assessed as survival rate at 10 uM measured for 48 hrs by MTT assay relative to control
J774.A1 = assay: cells; settings: Mus musculus, J774.A1, 24 h
in vivo [2] = settings: Sprague-Dawley, rat, iv, 1 mg/kg
in vivo [3] = settings: Sprague-Dawley, rat, po, 2 mg/kg
in vivo [4] = settings: Sprague-Dawley, rat, iv, 1 mg/kg; remark: listed apart in the source
in vivo [5] = settings: Sprague-Dawley, rat, po, 2 mg/kg; remark: listed apart in the source
in vivo [6] = settings: Sprague-Dawley, rat, po, 2 mg/kg; remark: listed apart in the source
Mus musculus = organism: Mus musculus; assay: animal or person; settings: C57BL/6, po, 169 h

## O=C(NCCc1cccs1)c1cc(Oc2ccc(NC(=O)c3cn(-c4ccc(F)cc4)c4ccccc4c3=O)cc2)ccn1
[1]
  viability at 48 h, 10 µM: > 100%
J774.A1
  IC50: 3 µM
In vivo [2]
  AUC at 24 h: 13000 ng·h/mL
In vivo [3]
  AUC at 24 h: 2180 ng·h/mL
In vivo [4]
  half-life at 24 h: 1.92 h
In vivo [5]
  half-life at 24 h: 3.61 h
In vivo [6]
  bioavailability at 24 h: 8.4%
Mus musculus
  survival at 20 mg/kg: 75%
